# Ab-14 light chain CDR variants: yeast mating affinities

Antigen: PDVDLGDISGINAS, a 14-residue peptide of the SARS-CoV-2 spike HR2 region.

Each scFv is VH, three GGGGS repeats, VL, as in the parent Ab-14, and differs from it in the CDRs of the light chain only.
VH: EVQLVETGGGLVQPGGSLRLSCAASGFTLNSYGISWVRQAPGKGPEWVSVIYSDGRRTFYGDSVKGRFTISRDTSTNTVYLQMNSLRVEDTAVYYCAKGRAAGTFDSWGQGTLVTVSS
VL: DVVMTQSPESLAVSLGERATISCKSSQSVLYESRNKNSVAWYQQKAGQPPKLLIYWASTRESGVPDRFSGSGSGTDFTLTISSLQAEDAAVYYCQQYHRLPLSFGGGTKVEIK

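This is the validation round: designs drawn from the data on random variants, tested in the same kind of assay. Group labels follow the data file (Ctrl: baseline library sampled from a position-specific scoring matrix, with some repeated check sequences; GP: Gaussian process model; HC: hill climbing; Gen: genetic algorithm; Gibbs: Gibbs sampling; a sequence that several methods proposed may carry one label only). The assay is AlphaSeq: two haploid yeast populations carry antibody and antigen on their surface. After mating in shaken culture at 30 °C for 16 h, diploids were selected and their barcode pairs sequenced. A regression on co-assayed BCL2-family reference pairs converts the normalised counts of each replicate to an apparent Kd. There are six technical replicates.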

Each variant is given by its three light chain CDRs, as the data file delimits them; those of the parent are KSSQSVLYESRNKNSVA, WASTRES, QQYHRLPLS.
Variants here have at most six changes.
Kd is apparent (estimated from mating counts) and averaged on the log scale over replicates with a signal. Smaller is tighter.
Values of this round are not directly comparable with the first-round values of the same sequences.
Three control strains display no target. For all light chain designs, 4% of the pairings with them gave a signal, with a median of 430 nM and one signal in twenty below 38 nM, so weak values seen in few replicates may be background. For each scFv, signals with the empty controls are counted beside the result.
The authors' rule: three or more of the six replicates give a measured affinity, fewer mean a poor binder.

- KSSQSVLAESRNHNSVA, WASTRES, QQYHRLPLS [Ctrl]: 40 nM (6 of 6 replicates; controls 0 of 18)
- KLEMSELYESRNKNSVA, NASQRES, QQYHRLPLS [GP_Gen]: 1.3 nM (6 of 6 replicates; controls 0 of 18)
- KSDQGVLYESRVKNSVA, GASTRES, QQYHRLPLS [GP_HC]: 3.6 nM (6 of 6 replicates; controls 1 of 18)
- MSSQSVLYESCEKNSVA, WASQRES, QQYARLPLS [Ctrl]: 240 nM (1 of 6 replicates; controls 1 of 18)
- KLEMSQLYESRNKNSVA, NASTRES, QQYHRLPLS [GP_Gen]: 1.3 nM (6 of 6 replicates; controls 1 of 18)
- KSSQSVLYESRNMNSVA, AASTRES, SQYHRLPLS [Ctrl]: 26 nM (6 of 6 replicates; controls 1 of 18)
- KVSQSVLYWSGTKNSVA, NASQRES, QQYHRLPLS [GP_HC]: 2.4 nM (6 of 6 replicates; controls 0 of 18)
- KSSQSVLPQSRNKNSVA, DASTRES, QQYHRLPLS [GP_HC]: 1.8 nM (6 of 6 replicates; controls 2 of 18)
- KSSQSVLYESRNKNSVA, DASTREP, QQYHRLPLS [Ctrl]: 710 pM (6 of 6 replicates; controls 1 of 18)
- KMSQSDLMEHRNKNSVA, DASLRES, QQYHRLPLS [GP_HC]: 450 pM (6 of 6 replicates; controls 0 of 18)
- KLSQSVLYESRNKNSVA, NASTREH, QQYHRLPLS [GP_Gen]: 670 pM (6 of 6 replicates; controls 1 of 18)
- KMSQSELYESRNKNSVA, NASTREE, QQYHRLPLS [GP_Gen]: 520 pM (6 of 6 replicates; controls 0 of 18)
- KLSQSQLYESRNKNSVA, NASQRES, QQYHRLPLS [GP_Gen]: 1.0 nM (6 of 6 replicates; controls 1 of 18)
- KSSISYLYESRNINSVA, EASQREQ, QQYHRLPLS [GP_HC]: 1.8 nM (6 of 6 replicates; controls 1 of 18)
- QSSQSVWYEARNKNSVA, WASTRES, QQYHRLPLS [Ctrl]: 210 nM (4 of 6 replicates; controls 1 of 18)
- KLSQSVLYESRNKNSVA, EASTRLM, QQYHRLPLS [GP_Gen]: 540 pM (6 of 6 replicates; controls 0 of 18)
- KSTGSVLYESNNKNSVA, WASRRES, QQYNRLPLS [Ctrl]: 160 nM (6 of 6 replicates; controls 0 of 18)
- KLPQSWGYESRNKNSVA, NASQRES, QQYHRLPLS [GP_Gen]: 420 pM (6 of 6 replicates; controls 1 of 18)
- KLSQSQLYESRNSNNVA, NASTRES, QQYHRLPLS [GP_Gen]: 450 pM (6 of 6 replicates; controls 2 of 18)
- KLDQSVLYESRNKNSVA, NASQREQ, QQYHRLPLS [GP_Gen]: 320 pM (6 of 6 replicates; controls 2 of 18)
- KSEQGVLYESRNKNSVA, GASLRES, QQYHRLPLS [GP_HC]: 12 nM (6 of 6 replicates; controls 1 of 18)
- KSSQSVLDESSNKNSVA, EAYTRES, QQYHRLPLS [Ctrl]: 2.5 nM (6 of 6 replicates; controls 2 of 18)
- KLSQSVLYEQRNKNSVA, DASTRLS, QQYHRLPLS [GP_Gen]: 460 pM (6 of 6 replicates; controls 4 of 18)
- KCSQSVLYESPNKNGVA, WASIRES, QQYMRLPLS [Ctrl]: 11 nM (6 of 6 replicates; controls 0 of 18)
- KLSQSWLYESRNKNSVA, NASQRLS, QDYHRLPLS [GP_Gen]: 1.6 nM (6 of 6 replicates; controls 2 of 18)
- HSSPSVAYESRNKNSVA, NASTRMS, QQYHRLPLS [GP_HC]: 1.9 nM (6 of 6 replicates; controls 0 of 18)
- KASPSEEYESRNKNSVA, NASTRYS, QQYHRLPLS [GP_Gibbs]: 19 nM (6 of 6 replicates; controls 0 of 18)
- KSSESVLYESRNKNSVA, NAKTRES, QQYHILPLS [Ctrl]: 6.8 nM (6 of 6 replicates; controls 0 of 18)
- KSSQSVLYESRNFNSVA, NASTRES, QQYHRLPLS [GP_Gen]: 1.5 nM (6 of 6 replicates; controls 1 of 18)
- KLQQSELYESRNKNSVA, NASTRSS, QQYHRLPLS [GP_Gen]: 1.3 nM (6 of 6 replicates; controls 0 of 18)
- KLMQSVPYESRNKNSVA, NASTRMS, QQYHRLPLS [GP_Gen]: 880 pM (6 of 6 replicates; controls 3 of 18)
- KSSQSVLYESRNKNSVA, WCSTRES, QQDHRLPLM [Ctrl]: 270 nM (2 of 6 replicates; controls 2 of 18)

The opening 3 entries, copied out:

| CDR-L1 | CDR-L2 | CDR-L3 | group | apparent Kd | replicates with signal | control signals |
|---|---|---|---|---|---|---|
| KSSQSVLAESRNHNSVA | WASTRES | QQYHRLPLS | Ctrl | 40 nM | 6 of 6 | 0 of 18 |
| KLEMSELYESRNKNSVA | NASQRES | QQYHRLPLS | GP_Gen | 1.3 nM | 6 of 6 | 0 of 18 |
| KSDQGVLYESRVKNSVA | GASTRES | QQYHRLPLS | GP_HC | 3.6 nM | 6 of 6 | 1 of 18 |

Reference: Li et al. 2023, doi:10.1038/s41467-023-39022-2. File: FLAb, binding data.